Earlier results as cited in PMC4699860 (Biophysical Journal, 2015).

Test system: Ras-GTP
Conditions: cited from earlier work

Substance: Raf-1 RBD: Ras-binding domain of Raf-1
- affinity for effector region of Ras-GTP (in words): nanomolar affinity
